Values quoted from earlier work in patent publication US7662571B2, “Mitochondrial markers of ischemia” (Nourheart Inc., priority 2005, dated 2010).

The chains behind the UniProt entries cited, without tags or fusion partners. Where a name states a change or a piece, a line headed by the entry shows the natural chain unless it says otherwise.
UniProt P25090: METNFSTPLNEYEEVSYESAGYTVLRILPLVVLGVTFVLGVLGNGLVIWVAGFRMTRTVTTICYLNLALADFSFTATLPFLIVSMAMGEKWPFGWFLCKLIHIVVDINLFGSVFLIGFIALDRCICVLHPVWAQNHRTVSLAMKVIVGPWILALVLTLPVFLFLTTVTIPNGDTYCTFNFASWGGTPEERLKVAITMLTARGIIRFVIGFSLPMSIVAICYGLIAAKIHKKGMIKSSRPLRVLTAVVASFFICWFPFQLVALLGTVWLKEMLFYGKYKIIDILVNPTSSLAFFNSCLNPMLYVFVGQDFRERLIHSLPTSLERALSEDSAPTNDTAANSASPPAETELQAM

Target: FPR-like 1 (FPRL1) (Homo sapiens, UniProt P25090)
Details: FPRL1, low-affinity receptor

formyl-Met-Leu-Phe [fMLP]
concentration needed for receptor activation: only activated by high (micromolar) concentrations
